Results from US20220023312A1, “METHODS AND SYSTEMS FOR DETECTING PSYCHOTIC DISORDERS ASSOCIATED WITH SEROTONIN RECEPTOR DEFICIENCIES” (ARIZONA BOARD OF REGENTS ON BEHALF OF THE UNIVERSITY OF …, priority 2016, published 2022).

[1] = Example 3, person, one hour following administration
[2] = Example 4, person, one hour following administration
[3] = Example 6, person, one hour after administration

Q: For Cc1cc2c(s1)Nc1ccccc1N=C2N1CCN(C)CC1 [olanzapine], which “eye test: time patient keeps eyes open” value [1] is on record?
A: Its value is “more than 10 seconds”.

Q: What about the “respiratory rate, oxygen saturation, and pulse” value [1] of the same compound?
A: Its value is “not significantly altered”.

Q: What about the “arousal by sternal rub” value [2] of the same compound?
A: The value was “barely aroused”.

Q: What about the “eye test: time patient keeps eyes open” value [2] of the same compound?
A: The value was ≤ 3 s.

Q: And the pulse [2]?
A: The pulse was “decrease in pulse”.

Q: And the respiratory rate [2]?
A: The respiratory rate was “Respiratory depression is observed”.

Q: What about the “ability to keep eyes open” value [3] of the same compound?
A: The value was “unable to keep their eyes open”.

Q: What about the “duration of sleep after administration” value [3] of the same compound?
A: Its value is 1 h.

Like-named read-outs stand apart in the source and are kept apart here.
